Protein sequences, listed by entry. Tags and fused reporters are not part of them.
UniProt P0DMS8, whole entry: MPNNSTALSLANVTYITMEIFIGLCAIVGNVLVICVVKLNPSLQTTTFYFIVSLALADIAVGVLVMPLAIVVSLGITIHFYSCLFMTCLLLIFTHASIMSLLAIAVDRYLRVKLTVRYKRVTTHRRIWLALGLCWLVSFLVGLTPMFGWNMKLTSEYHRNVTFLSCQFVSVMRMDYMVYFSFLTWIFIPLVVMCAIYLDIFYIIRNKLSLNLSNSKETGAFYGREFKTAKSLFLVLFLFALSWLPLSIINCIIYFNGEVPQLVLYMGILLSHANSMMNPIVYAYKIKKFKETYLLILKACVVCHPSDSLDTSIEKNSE

According to BindingDB's records for doi:10.1021/acs.jmedchem.8b02026 (Leiden University, 2019):

What was measured:
Adenosine receptor A3 [1] = biological target: T1, Adenosine receptor A3 (Homo sapiens, UniProt P0DMS8); test: Displacement of [3H]PSB11 from human A3 adenosine receptor expressed in CHO cell membranes preincubated for 4 hrs followed by [3H]PSB11 addition and measured after 0.5 hrs by scintillation spectrometric method
Summary of the method: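 hA3AR CHO membranes preincubated 4 h at 25 °C with competitor, then co-incubated 0.5 h with [3H]PSB-11 (~10 nM). Filtration and scintillation counting; apparent Ki; three experiments in duplicate.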

Adenosine receptor A3 [2] = biological target: T1, Adenosine receptor A3; test: Displacement of [3H]PSB11 from human A3 adenosine receptor expressed in CHO cell membranes measured after 0.5 hrs by scintillation spectrometric method
Summary of the method: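 hA3AR CHO membranes co-incubated 0.5 h at 25 °C with competitor and [3H]PSB-11 (~10 nM) in Tris/MgCl2/CHAPS/EDTA buffer, pH 7.4. Filtration and scintillation counting; Ki by Cheng-Prusoff; three experiments in duplicate.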

Adenosine receptor A3 [3] = biological target: T1, Adenosine receptor A3; test: Displacement of [3H]PSB11 from human A3 adenosine receptor expressed in CHO cell membranes measured after 2 hrs by scintillation spectrometric method
Summary of the method: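 CHO membranes stably expressing hA3AR (15 µg) in 50 mM Tris-HCl, 5 mM MgCl2, 0.01% CHAPS, 1 mM EDTA, pH 7.4, with ~10 nM [3H]PSB-11 and six competitor concentrations, 120 min at 25 °C. Nonspecific binding defined with 100 µM NECA. Filtration, then scintillation counting; one-site fit, Cheng-Prusoff Ki; three experiments in duplicate.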

CCCn1c(=O)c2c(nc3cc(OC)ccn32)n(CCCNC(=O)c2ccc(S(=O)(=O)F)cc2)c1=O
Ki (Adenosine receptor A3 [1]): 10 nM
Ki (Adenosine receptor A3 [2]): 126 nM
Ki (Adenosine receptor A3 [3]): 10 nM
